The target of experiment [1] is T1, BACE1 (Homo sapiens (Human), UniProt P56817). Description: Measurement of BACE1 inhibition by fluorescence resonance energy transfer (FRET), MCA substrate. The conditions noted are these: for Ki: read-out: Test Example 1 BACE1 MCA Ki, MCA substrate.
Experiment [2] concerns the target T1, BACE1. In words: Measurement of Aβ production inhibition in cell (SK-N-BE(2) neuroblastoma cells, Aβ40 ELISA). The conditions noted are these: read-out: Test Example 3 IC50, SK-N-BE(2) cells, 6 hours.

Protein sequences, listed by entry. Tags and fused reporters are not part of them. Residues count along the entry.
UniProt P56817, 75-416: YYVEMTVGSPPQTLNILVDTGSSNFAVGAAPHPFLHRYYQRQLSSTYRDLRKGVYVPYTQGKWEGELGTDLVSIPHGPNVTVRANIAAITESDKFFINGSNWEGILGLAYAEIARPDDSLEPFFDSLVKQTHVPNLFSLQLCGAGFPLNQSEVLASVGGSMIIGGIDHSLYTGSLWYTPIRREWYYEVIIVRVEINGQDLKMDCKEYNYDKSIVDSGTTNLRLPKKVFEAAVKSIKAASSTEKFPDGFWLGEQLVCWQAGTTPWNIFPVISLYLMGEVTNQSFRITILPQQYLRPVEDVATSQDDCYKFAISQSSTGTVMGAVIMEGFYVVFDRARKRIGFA
UniProt P56817, 46-501: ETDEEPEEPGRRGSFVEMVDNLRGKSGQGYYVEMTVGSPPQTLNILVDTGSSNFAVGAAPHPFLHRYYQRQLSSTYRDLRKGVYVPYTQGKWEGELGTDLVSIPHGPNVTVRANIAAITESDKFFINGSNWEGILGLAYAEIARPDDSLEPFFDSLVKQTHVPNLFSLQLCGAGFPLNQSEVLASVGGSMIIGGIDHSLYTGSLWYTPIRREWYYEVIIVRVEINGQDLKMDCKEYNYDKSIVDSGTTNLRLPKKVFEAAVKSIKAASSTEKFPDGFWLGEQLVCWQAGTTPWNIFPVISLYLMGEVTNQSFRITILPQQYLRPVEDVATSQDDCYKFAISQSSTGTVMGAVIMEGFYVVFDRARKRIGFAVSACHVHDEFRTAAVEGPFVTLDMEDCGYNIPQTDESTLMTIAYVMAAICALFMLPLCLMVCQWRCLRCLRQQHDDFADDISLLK

Molecules are shown by their SMILES.

`COc1cnc(C(=O)Nc2ccc3c(c2)[C@@]2(COC(N)=N2)C2(CC2)C(C)(C)O3)cn1` [Example 223, N-[(4′R)-2″-amino-2′,2′-dimethyldispiro[cyclopropane-1,3′-chromene-4′,4″-[1,3]oxazol]-6′-yl]-5-methoxypyrazine-2-carboxamide]: the Ki on BACE1 [1] is 61.2 nM.
For the compound `NC1=NC2(CO1)c1cc(NC(=O)c3ncc(Cl)cc3F)ccc1OCC21CC1` (stereo not drawn) [RP 29], the IC50 on BACE1 [2] worked out at 22 nM.
For `CC1(C)Oc2ccc(NC(=O)c3cnc(C(F)F)cn3)cc2[C@@]2(COC(N)=N2)C12CC2` [Example 224, N-[(4′R)-2″-amino-2′,2′-dimethyldispiro[cyclopropane-1,3′-chromene-4′,4″-[1,3]oxazol]-6′-yl]-5-(difluoromethyl)pyrazine-2-carboxamide], the inhibitory constant (Ki) at BACE1 [1] is 52.7 nM. For the same compound, the concentration for half-maximal inhibition (IC50) at BACE1 [1] (read-out: Test Example 1 IC50, MCA-SEVNLDAEFK(DNP)-NH2 substrate, pH 4.4) amounted to 91.4 nM.
As for `CC1(C)Oc2ccc(NC(=O)c3ccc(Br)cn3)cc2[C@@]2(COC(N)=N2)C12COC2` [Example 219], at BACE1 [1], the Ki was determined as 10.2 nM.
The same measure, in the same setting: for `CC#Cc1cncc(-c2ccc3c(c2)C2(COC(N)=N2)C2(COC2)C(C)(C)O3)c1` (stereo not drawn) [RP 110] the value was 90.4 nM.

(Values after patent publication US8975415B2, “Chromane compounds” (CoMentis, Inc., priority 2012, dated 2015).)
